Reference: patent US20120196899A1, “METHODS AND PRODUCTS FOR TREATING INFLAMMATION” (Rock Creek Pharmaceuticals, Inc., priority 2010, published 2012)
Read-outs that look alike come from different tables or passages of the source.

By UniProt entry, the sequences of proteins in these tests, tags left out. Residues count along the entry.
UniProt P17787, 26-502: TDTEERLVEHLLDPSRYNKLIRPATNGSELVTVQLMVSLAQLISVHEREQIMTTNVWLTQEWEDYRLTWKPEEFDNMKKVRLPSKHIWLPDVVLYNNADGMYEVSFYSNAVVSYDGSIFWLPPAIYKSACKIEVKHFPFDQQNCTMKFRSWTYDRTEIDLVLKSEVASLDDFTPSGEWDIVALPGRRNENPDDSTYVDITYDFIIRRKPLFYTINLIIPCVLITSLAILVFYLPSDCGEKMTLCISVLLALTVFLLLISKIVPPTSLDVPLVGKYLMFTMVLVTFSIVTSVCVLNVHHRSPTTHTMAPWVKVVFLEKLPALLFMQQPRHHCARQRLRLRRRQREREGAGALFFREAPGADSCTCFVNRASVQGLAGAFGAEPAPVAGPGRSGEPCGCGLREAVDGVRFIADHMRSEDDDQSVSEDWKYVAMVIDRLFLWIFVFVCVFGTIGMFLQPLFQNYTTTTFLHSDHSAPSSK
UniProt P43681, 29-627: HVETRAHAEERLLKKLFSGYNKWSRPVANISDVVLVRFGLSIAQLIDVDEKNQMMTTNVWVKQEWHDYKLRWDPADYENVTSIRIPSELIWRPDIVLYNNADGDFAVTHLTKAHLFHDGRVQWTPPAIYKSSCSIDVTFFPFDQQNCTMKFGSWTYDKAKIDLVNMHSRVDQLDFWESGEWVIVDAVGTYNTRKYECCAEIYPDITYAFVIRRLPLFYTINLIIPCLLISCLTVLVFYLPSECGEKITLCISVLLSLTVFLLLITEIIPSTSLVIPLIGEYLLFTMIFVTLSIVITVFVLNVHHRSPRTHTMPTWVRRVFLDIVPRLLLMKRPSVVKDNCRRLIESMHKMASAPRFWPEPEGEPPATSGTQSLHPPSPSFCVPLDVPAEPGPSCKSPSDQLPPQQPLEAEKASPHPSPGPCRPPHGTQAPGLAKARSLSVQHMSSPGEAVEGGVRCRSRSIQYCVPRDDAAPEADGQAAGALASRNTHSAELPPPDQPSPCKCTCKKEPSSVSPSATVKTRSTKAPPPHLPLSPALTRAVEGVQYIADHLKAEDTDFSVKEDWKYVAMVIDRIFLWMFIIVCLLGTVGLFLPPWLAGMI
UniProt P36544, 23-502: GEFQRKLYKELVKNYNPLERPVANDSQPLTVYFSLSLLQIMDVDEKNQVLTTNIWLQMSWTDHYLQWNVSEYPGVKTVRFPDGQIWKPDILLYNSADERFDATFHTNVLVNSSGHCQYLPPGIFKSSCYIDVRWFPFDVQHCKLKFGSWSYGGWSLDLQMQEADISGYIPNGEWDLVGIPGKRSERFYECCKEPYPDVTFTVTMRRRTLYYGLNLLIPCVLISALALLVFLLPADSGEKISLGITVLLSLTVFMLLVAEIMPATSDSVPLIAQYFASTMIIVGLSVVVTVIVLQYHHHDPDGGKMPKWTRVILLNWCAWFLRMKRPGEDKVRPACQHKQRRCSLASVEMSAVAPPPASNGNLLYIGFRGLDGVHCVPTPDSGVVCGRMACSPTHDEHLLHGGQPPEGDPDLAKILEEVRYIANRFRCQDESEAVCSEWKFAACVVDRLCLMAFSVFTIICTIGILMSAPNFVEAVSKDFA
UniProt P30926, 22-498: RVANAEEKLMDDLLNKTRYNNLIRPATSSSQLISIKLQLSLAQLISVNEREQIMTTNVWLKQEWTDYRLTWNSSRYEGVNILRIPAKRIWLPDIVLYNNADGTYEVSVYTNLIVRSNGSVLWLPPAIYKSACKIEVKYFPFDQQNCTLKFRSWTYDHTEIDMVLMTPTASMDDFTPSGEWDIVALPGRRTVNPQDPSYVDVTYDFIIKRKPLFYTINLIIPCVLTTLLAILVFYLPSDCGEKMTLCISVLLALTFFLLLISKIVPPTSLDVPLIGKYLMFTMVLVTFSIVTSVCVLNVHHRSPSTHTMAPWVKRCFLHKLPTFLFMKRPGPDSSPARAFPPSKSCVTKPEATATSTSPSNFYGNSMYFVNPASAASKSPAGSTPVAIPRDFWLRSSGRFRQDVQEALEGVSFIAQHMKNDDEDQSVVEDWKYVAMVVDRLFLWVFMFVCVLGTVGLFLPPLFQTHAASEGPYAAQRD
UniProt P32297, 32-505: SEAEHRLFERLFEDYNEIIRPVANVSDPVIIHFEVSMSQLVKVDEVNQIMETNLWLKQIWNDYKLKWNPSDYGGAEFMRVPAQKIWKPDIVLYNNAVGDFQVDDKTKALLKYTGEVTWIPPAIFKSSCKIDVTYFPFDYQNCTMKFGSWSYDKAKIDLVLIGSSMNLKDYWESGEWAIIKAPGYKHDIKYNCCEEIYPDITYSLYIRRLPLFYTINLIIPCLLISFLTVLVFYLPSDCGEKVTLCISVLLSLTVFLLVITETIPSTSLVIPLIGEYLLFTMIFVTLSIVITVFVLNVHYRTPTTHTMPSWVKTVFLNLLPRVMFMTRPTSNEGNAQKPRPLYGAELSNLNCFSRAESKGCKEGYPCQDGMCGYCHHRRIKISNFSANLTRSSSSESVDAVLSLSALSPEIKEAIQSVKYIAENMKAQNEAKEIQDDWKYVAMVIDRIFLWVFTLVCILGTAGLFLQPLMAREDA

Legend:
[1] = Coagulation parameters (aPTT, PT), day 15; type: in vivo, Sprague-Dawley rats; settings: female; 0.75 mg/kg; group mean
Description: On day 15, urine was collected on all surviving animals for urinalysis. The animals were euthanized and bled via cardiac puncture. Blood was collected for hematology, clinical chemistry, and coagulation analysis. Tissues were collected, weighed, and stored in 10% neutral-buffered formalin for possible future analysis.
Individual values for the coagulation parameters activated partial thromboplastin (aPTT) and prothrombin times (PT) for each animal are listed in Table 34 (normal ranges, Table 30). These are summarized in terms of descriptive statistics in Table 25.

nAChR α4/β2 = target: T1, nAChR α4/β2 (Homo sapiens, UniProt P17787+P43681); assay: nAChR α4/β2 channel agonist assay (FLIPR membrane potential); type: cell-based; settings: 30 μM Ach = 100%, HBPS = 0%
T1 construct: host or cells: HEK293 cells, transient transfection

nAChR α7 [2] = target: T2, nAChR α7 (Homo sapiens, UniProt P36544); assay: nAChR α7 positive allosteric modulator assay (FLIPR); type: cell-based; settings: with 30 μM Ach (= 0%), 30 μM Ach + 10 μM PNU-120596 = 100%
T2 construct: host or cells: CHO cells
Description: Neither test article potentiated the activity of the nAChR α7 receptor.

nAChR α7 [3] = target: T2, nAChR α7; assay: nAChR α7 channel agonist assay (FLIPR, with PNU-120596); type: cell-based; settings: in presence of PNU-120596, 30 μM Ach + 10 μM PNU-120596 = 100%, HBPS = 0%
Protocol: Therefore, the assay of agonist activity for either Ach or for the test articles was conducted in the presence of the positive allosteric modulator.

nAChR α3/β4 = nAChR α3/β4 (Homo sapiens, UniProt P30926+P32297); assay: nAChR α3/β4 channel agonist assay (FLIPR, Fluo-8 calcium); settings: 30 μM Ach = 100%, HBPS = 0%
nAChR α7 [4] = target: T2, nAChR α7; type: cell-based; settings: with 300 μM Ach + 10 μM PNU-120596, 10 μM MLA = full inhibition

With `CN1CCCC1c1cccnc1.O=C(O)C(O)C(O)C(=O)O` (single isomer, unassigned; (-)) [Nicotine, (−) Nicotine hydrogen tartrate] the “P[…]” value [1] was 14.1 s.

With `CN1CCC[C@H]1c1cccnc1` (single isomer, unassigned) [Nicotine (—) isomer] the “Normalized % Activation” value (nAChR α4/β2; test conc 0.3 μM) was 16.27%, the “Normalized % Activation” value (nAChR α4/β2; test conc 1 μM) was 34.05% and the “Normalized % Activation” value (nAChR α4/β2; test conc 3 μM) was 61.88%. For the same compound, the “Normalized % Activation” value (nAChR α4/β2; test conc 10 μM) was 74.31%, the “Normalized % Activation” value (nAChR α4/β2; test conc 30 μM) was 75.53% and the “Normalized % Activation” value (nAChR α4/β2; test conc 100 μM) was 71.02%. For the same compound, the “Normalized % Activation” value (nAChR α4/β2; test conc 300 μM) was 58.23%, the “Normalized % Activation” value (nAChR α4/β2; test conc 1000 μM) was 57.05% and the “Normalized % Potentiation” value (nAChR α7 [2]; test conc 0.3 μM) was −0.95%. The “Normalized % Potentiation” value (nAChR α7 [2]; test conc 1 μM) was −1.03%, the “Normalized % Potentiation” value (nAChR α7 [2]; test conc 3 μM) was −0.81% and the “Normalized % Potentiation” value (nAChR α7 [2]; test conc 10 μM) was −0.61%. For the same compound, the “Normalized % Potentiation” value (nAChR α7 [2]; test conc 30 μM) was −0.47%, the “Normalized % Potentiation” value (nAChR α7 [2]; test conc 100 μM) was −0.46% and the “Normalized % Potentiation” value (nAChR α7 [2]; test conc 300 μM) was −0.34%. The “Normalized % Potentiation” value (nAChR α7 [2]; test conc 1000 μM) was −0.51%, the “Normalized % Activation” value (nAChR α7 [3]; test conc 0.3 μM) was −1.03% and the “Normalized % Activation” value (nAChR α7 [3]; test conc 1 μM) was 0.15%. For the same compound, the “Normalized % Activation” value (nAChR α7 [3]; test conc 3 μM) was 0.72%, the “Normalized % Activation” value (nAChR α7 [3]; test conc 10 μM) was 2.44% and the “Normalized % Activation” value (nAChR α7 [3]; test conc 30 μM) was 5.19%. For the same compound, the “Normalized % Activation” value (nAChR α7 [3]; test conc 100 μM) was 11.60%, the “Normalized % Activation” value (nAChR α7 [3]; test conc 300 μM) was 27.98% and the “Normalized % Activation” value (nAChR α7 [3]; test conc 1000 μM) was 48.47%. For the same compound, the “Normalized % Activation” value (nAChR α3/β4; test conc 0.3 μM) was 0.94%, the “Normalized % Activation” value (nAChR α3/β4; test conc 1 μM) was −1.28% and the “Normalized % Activation” value (nAChR α3/β4; test conc 3 μM) was 1.11%. For the same compound, the “Normalized % Activation” value (nAChR α3/β4; test conc 10 μM) was 38.17%, the “Normalized % Activation” value (nAChR α3/β4; test conc 30 μM) was 122.59% and the “Normalized % Activation” value (nAChR α3/β4; test conc 100 μM) was 201.50%. For the same compound, the “Normalized % Activation” value (nAChR α3/β4; test conc 300 μM) was 264.77%, the “Normalized % Activation” value (nAChR α3/β4; test conc 1000 μM) was 208.23% and the “Normalized % Inhibition” value (nAChR α7 [4]; test conc 0.3 μM) was 2.78%. For the same compound, the “Normalized % Inhibition” value (nAChR α7 [4]; test conc 1 μM) was 11.83%, the “Normalized % Inhibition” value (nAChR α7 [4]; test conc 3 μM) was 41.24% and the “Normalized % Inhibition” value (nAChR α7 [4]; test conc 10 μM) was 32.54%. For the same compound, the “Normalized % Inhibition” value (nAChR α7 [4]; test conc 30 μM) was 39.20%, the “Normalized % Inhibition” value (nAChR α7 [4]; test conc 100 μM) was 18.65% and the “Normalized % Inhibition” value (nAChR α7 [4]; test conc 300 μM) was 14.10%. For the same compound, the “Normalized % Inhibition” value (nAChR α7 [4]; test conc 1000 μM) was −37.01%.
